US20140194321A1 (CELLOMICS, INC., priority 2013, published 2014)

Test system: U937 cells
Experiment: High-content imaging skin sensitizing prediction assay: U937 cells treated 24 h with a range of compound concentrations, CD54 intensity per cell and cell number dose response curves qualified, decision matrix applied
Conditions: 24 hours compound treatment; for Cell Number Result: qualified dose response curve (increasing/flat/decreasing) of number of cells; for CD54/Cell Result: qualified dose response curve (increasing/flat/decreasing) of CD54 intensity per cell

With `OCC(O)CO` [Glycerol] the “Cell Number Result” value was “Increase”.
`N#CCCC(Br)(C#N)CBr` (stereo not shown) [2bromo-2bromomethylglutaronitrile] was tested, and the “Cell Number Result” value was “Decrease”.
`CC(C)O` [Isopropanol] was tested, and the “Cell Number Result” value was “Increase”.
In the case of `CCCCCC/C(C=O)=C\c1ccccc1` [Hexylcinnaldehyde], the “CD54/Cell Result” value is reported as “Increase”, the “CD54/Cell Result” value (listed as hexylcinnaldehyde) is reported as “increasing” and the “Cell Number Result” value is reported as “Increase”. The “Cell Number Result” value (listed as hexylcinnaldehyde) was “increasing”.
